Results as given in patent US8580977B2 (priority 2010, dated 2013).

Tests used:
Assay type in all cases: cell-based
HCT-115 = experiment: in vitro cytotoxicity assay, HCT-115; conditions: HCT-115 human cancer cell line
Experimental: (§1) IR spectra were measured on a Bruker EQUINOX 55/S FT-IR/NIR spectrophotometer (Ettlingen, DE). Optical rotations were determined on a Perkin-Elmer 241 instrument at the sodium D line (589 nm). High-resolution mass spectrometry (HRMS) analyses were acquired on an IonSpec HiRes MALDI FT mass spectrometer (Lake Forest, Calif.) for HRMALDIMS or on an Agilent 1100 series LC/MSD Trap SL for HRESIMS (Santa Clara, Calif.). NMR data were recorded on a Varian Unity Inova 400 or 500 MHz NMR spectrometer (Varian, Inc., Palo Alto, Calif.). ^1H and ^13C NMR chemical shifts were referenced to residual solvent signals: δH 7.26 ppm and […] for CDCl3. ^1H-^1H COSY, HMQC, HMBC, HETLOC, gHSQMBC, and gDQCOSY were performed using either standard Varian pulse sequences or literature pulse sequences (Uhrin et al., 1998; Williamson et al., 2000). High-performance liquid chromatography (HPLC) analysis was carried out on a Varian HPLC system equipped with ProStar 210 pumps and a photodiode detector. Mobile phases used were buffer A (H2O) and buffer B (CH3CN). Analytical and semipreparative HPLC columns used were Alltech Alltima C18 columns, 250×4.6 mm, 5 μm and 250×10 mm, 5 respectively. Cytotoxity assays and PP inhibition assays for TTN and related analogues were performed as previously described for compound TTM and related congeners (Ju et al., 2009). […]

MCF7 = experiment: in vitro cytotoxicity assay, MCF7; conditions: MCF7 human cancer cell line
Experimental: as §1

Du145 = experiment: in vitro cytotoxicity assay, Du145; conditions: Du145 human cancer cell line
Experimental: as §1

Substance: Tautomycetin [TTN (1), reference compound]
- IC50 (HCT-115): 6.8 ± 0.6 µM
- IC50 (MCF7): 8.9 ± 0.9 µM
- IC50 (Du145): 5.2 ± 0.4 µM
